From patent US10987430B2, “Di-substituted maleic amide linker for antibody drug conjugating and preparation method and use thereof” (Mabwell (shanghai) Bioscience Co., Ltd., priority 2016, dated 2021)

Columns and labels:
[1] = tested on: NCI-N87 human gastric cancer cells; test: SRB cell proliferation assay in vitro; format: cell-based
Text: (§1) Sulforhodamine B (SRB)-based colorimetric method was used in this Example to evaluate the anti-proliferative effect of the drugs. SRB is a pink anionic dye which is easily soluble in water and can specifically bind to basic amino acids making up proteins in cells under an acidic condition. It provides an absorption peak at 510 nm, and the absorbance is linearly and positively correlated with the amount of cells. In this regard, the method can be used in a quantitative detection of cell number.
(§2) BT-474, SK-BR-3 and NCI-N87 cells in RPMI 1640 medium containing 10% fetal bovine serum, SKOV-3, Du-145, Panc-1, MCF-7 and MDA-MB-231 cells in DMEM containing 10% fetal bovine serum, and MDA-MB-468 cells in DMEM/F12 containing 10% fetal bovine serum were incubated to logarithmic growth phase in a 5% CO2 incubator at 37° C. The above cells in the logarithmic growth phase were inoculated into 96-well plates at a density of 2×10^3 to 9×10^3 cells per well, 100 μL per well, cultured for 24 hours and then different concentrations of drugs were added thereto for 5 days. Specifically, each drug was prepared into nine concentrations by diluting in 3, 4 or 5-fold, each concentration was set in duplicate wells, and corresponding concentration of vehicle control wells and medium control wells without cells were set too. At the end of drug action, culture solutions were decanted, and 100 μl of a pre-cooled trichloroacetic acid solution (30%, w/v) at 4° C. was added to each well and the cells were fixed at 4° C. for 1 hour. Subsequently, the cells were washed with deionized water for 5 times, and dried at room temperature, and then 100 μL of 0.4% (w/v) SRB dye (Sigma, prepared with 1% glacial acetic acid) was added to each well. After being incubated and stained at room temperature for 30 minutes, the cells were washed with 1% glacial acetic acid for 4 times to remove unbound dyes, and then dried at room temperature. Afterwards, 100 μL of 10 mM Tris solution was added per well. After being incubated and stained at room temperature for 15 minutes, the cells was washed with 1% glacial acetic acid for 5 times to remove unbound SRB, and then dried at room temperature. Dyes bound to the proteins in cells were dissolved by addition of 10 mM Tris buffer (pH=10.5) per well, and the absorbance (OD value) was measured at wavelengths of 510 nm and 690 nm using Synergy 2 Microplate Reader (Bio-Tek). A=OD510−OD690. Inhibition rate (%)=(Acontrol−Adrug)/Acontrol×100%
(§3) Sulforhodamine B (SRB)-based colorimetric method was used in this Example to evaluate the anti-proliferative effect of the drugs. […] It provides an absorption peak at 510 nm, and the absorbance is linearly and positively correlated with the amount of cells. In this regard, the method can be used in a quantitative detection of cell number. […]

[2] = tested on: BT-474 human breast cancer cells; test: SRB cell proliferation assay in vitro; format: cell-based
Text: as §1, §2, §3

[3] = tested on: SK-BR-3 human breast cancer cells; test: SRB cell proliferation assay in vitro; format: cell-based; conditions: SK-BR-3, Her2 highly expressing, 5 days, FIG. 4
Text: as §1
BT-474, SK-BR-3 and NCI-N87 cells in RPMI 1640 medium containing 10% fetal bovine serum, SKOV-3, Du-145, Panc-1, MCF-7 and MDA-MB-231 cells in DMEM containing 10% fetal bovine serum, and MDA-MB-468 cells in DMEM/F12 containing 10% fetal bovine serum were incubated to logarithmic growth phase in a 5% CO2 incubator at 37° C. The above cells in the logarithmic growth phase were inoculated into 96-well plates at a density of 2×10^3 to 9×10^3 cells per well, 100 μL per well, cultured for 24 hours and then different concentrations of drugs were added thereto for 5 days. […] Dyes bound to the proteins in cells were dissolved by addition of 10 mM Tris buffer (pH=10.5) per well, and the absorbance (OD value) was measured at wavelengths of 510 nm and 690 nm using Synergy 2 Microplate Reader (Bio-Tek). […]

[4] = tested on: human gastric cancer NCI-N87 subcutaneous xenografts; test: In vivo anti-tumor efficacy assay (FIG. 10), IV once a week, 2 times in total; set-up: species or system BALB/cA-nude mice; conditions: 2 mg/kg
Description: 6-7 weeks BALB/cA-nude mice (♀) were purchased from Shanghai Lingchang Biotechnology Co., Ltd. Production license number: SCXK (Shanghai) 2013-0018; animal certificate number: 2013001815683; and feeding environment: SPF level.
Those nude mice were subcutaneously inoculated with human gastric cancer NCI-N87 cells, and then randomly divided into groups (D0) when tumors grew to 100-250 mm^3. Tumor volume was measured 2-3 times a week, the mice were weighed, and corresponding data were recorded. The tumor volume (V) was calculated as: V=½×a×b^2; in which a and b represent length and width respectively. T/C (%)=(T−T0)/(C−C0)×100, in which T and C represent the tumor volumes at the end of the experiment; T0 and C0 represent the tumor volumes at the beginning of the experiment.

IC50 ([1]; NCI-N87, 120 h) [µg/mL] | IC50 ([2]; BT-474, 120 h) [µg/mL] | Substance | inhibition of tumor cell proliferation [3] | tumor inhibition rate [4] [%] | inhibition of tumor cell proliferation ([1]; NCI-N87, Her2 highly expressing, 5 days, FIG. 6, FIG. 9-1) | inhibition of tumor cell proliferation ([2]; BT-474, Her2 highly expressing, 5 days, FIG. 5)
0.440 | 0.0986 | Herceptin: HER2 antibody, naked antibody |  |  |  | 
 |  | Kadcyla: ADC drug developed by Genentech for the treatment of breast cancer; reference drug | significant inhibition of tumor cell proliferation | 77 | significant inhibition of tumor cell proliferation | significant inhibition of tumor cell proliferation
